Data published in US20120129834A1, “SEROTONIN RECEPTOR ANTAGONISTS FOR USE IN THE TREATMENT OF HUNTINGTON'S DISEASE” (BUCK INSTITUTE FOR RESEARCH ON AGING, priority 2010, published 2012).
“Also recorded” adds a separate entry of the source.

Key:
[1] = test system: caspase-3/7; test: caspase activation assay, STHdh111Q/111Q serum deprivation model; format: cell-based; conditions: dose/response, FIG. 17 lower panel, n=3/dose
[2] = test system: striatal area; test: striatal area in brain sections of treated mice; format: in vivo, mouse; conditions: 7.5 mg/kg vs 0.9% saline and ntg, FIG. 22

For `CN1CCC(=C2c3ccccc3CCc3sccc32)CC1` [Pizotifen, 4-(1-methyl-4-piperidylidine)-9,10-dihydro-4H-benzo-[4,5]cyclohepta[1,2]-thiophene], the caspase-3/7 activation [1] was “rescue” and the striatal area [2] was “effective to preserve striatal area; also recorded: striatal area is preserved”.
